Columns and labels:
[1] = molecular target: human HSP90 alpha protein (N-terminal, amino acids 2-236) (Homo sapiens (Human), UniProt P07900); assay: Measurement of HSP90-binding activity (AlphaScreen competitive assay, biotin-labeled geldanamycin); conditions: read-out: HSP-binding activity IC50
Description: First, a solution of purified HSP90 was prepared as follows. […] The pET-HSP90N was introduced into Escherichia coli cells (BL21 (DE3), Stratagene Inc.), and then the Escherichia coli cells were cultured in the presence of 0.5 mM isopropyl-beta-D-thiogalactopyranoside (Sigma-Aldrich Corp.) at 37° C. for 4 hours. The Escherichia coli cells were collected, suspended in a lysis buffer (50 mM Tris-HCl (pH 7.5), 200 mM NaCl), and sonicated. The sonicated cell solution was centrifuged (40,000×g, 20 minutes) to obtain supernatant as a crude extract. The crude extract was fractionated by Ni Sepharose High Performance (GE Healthcare Japan Corporation) chromatography and HiLoad 26/60 Superdex 75 pg (GE Healthcare Japan Corporation), and the fraction in which HSP90 protein was concentrated was prepared so as to be a 50 mM Tris-HCl (pH 7.5)/20% glycerol solution as a purified HSP90 solution. […]
The HSP90-binding activity was measured by an AlphaScreen competitive assay system. […] After reaction in a dark place at room temperature for 1 hour, the fluorescence intensity in each well was measured with a multilabel plate reader, EnVision (Perkin Elmer, Inc.). The inhibition rate (%) of biotin-labeled geldanamycin binding by a compound of the present invention was determined by the following equation using the fluorescence signal of a test substance-free group (control) as a control. […]

[2] = system: SK-BR-3 cells; assay: Measurement of cell growth inhibition (crystal violet staining); type: cell-based; conditions: Homo sapiens, SK-BR-3, 72 h, read-out: Cell growth inhibition IC50
Description: Cell growth was measured by a crystal violet staining method. […] The cells were cultured in a 5% CO2 incubator at 37° C. for 24 hours, and then test substances were added to the plate, followed by culturing for further 72 hours. […] The plate was left to stand at room temperature for 20 minutes for staining the cells. The plate was washed with water and dried, and 100 μL of a mixed solution of 0.05 M NaH2PO4 and ethanol (mixture in equal amounts) was added to each well. The absorbance at 540 nm was measured with a microplate reader (MTP-450, Corona Electric Co., Ltd.) as an index of the number of cells in each well. The inhibition rate (%) of cell growth by a compound of the present invention was determined by the following equation using the absorbance of a drug-untreated group (control) as a control. […] Inhibition rate (%)=(C−T)/C×100 T: absorbance in a well to which a test substance was added C: absorbance in a well to which no test substance was added

With CCCc1cn(-c2ccc(C(N)=O)c(NC(C)(C)C)c2)c2cccc(-n3cnc(-c4cnn(C)c4)c3)c12 [Example 50, 2-(Tert-buylamino)-4-{4-(4-(1-methyl-1H-pyrazolo-4-yl)-1H-imidazolo-1-yl)-3-propyl-1H-indol-1-yl}benzamide] as the compound, how does the IC50 [1] read?
Its IC50 is 250 nM.

And the IC50 [2]?
The IC50 was 10 nM.
